Test system: DAOY (SHH subgroup) MB cell line
Assay: GD2 expression by flow cytometry after EZH2 inhibitor, DAOY
Format: cell-based, human
Conditions: 1-10 µM of Tazemetostat for seven days

Question: What does the source list for `CCN(c1cc(-c2ccc(CN3CCOCC3)cc2)cc(C(=O)NCc2c(C)cc(C)[nH]c2=O)c1C)C1CCOCC1` [Tazemetostat]?
Answer: GD2 expression in percentage (from 33.3%): 77.2%; GD2 Median Fluorescence Intensity (MFI) (from 5416): 8995
